# Results published in published antibiotic growth screens (doi:10.1038/s41589-023-01349-8).
# The list shows a part of the results.
# Test system: A. baumannii ATCC 17978
# Experiment: relative growth (fraction of control); higher = less inhibition
# Conditions: 50 µM
row,SMILES,relative growth
1,C=CCN(C#N)c1nc(N(C)C)nc(N(C)C)n1,0.847
2,CC(=O)c1c(O)cc(O)cc1O,0.918
3,O=S(=O)(NCCCCN(C/C=C/c1ccccc1)C/C=C/c1ccccc1)c1cccc2cnccc12,0.861
4,CC(=O)O[C@@H]1CC2C(C)(CC[C@H](O)C2(C)C)C2CC[C@]3(C)C(=CC(=O)O[C@H]3c3ccoc3)C21C (stereo partly drawn) [3beta-HYDROXYDEOXODIHYDRODEOXYGEDUNIN],0.945
5,NC1CCN(C(=O)c2cc3ccccc3[nH]2)CC1,0.995
6,O=C(C[C@@H]1CC=CC[C@H](NC(=O)OCC2c3ccccc3-c3ccccc32)C(=O)O[C@H](c2ccccc2)CNC1=O)N[C@@H](CO)Cc1ccccc1,1.04
7,[N-]=[N+]=Nc1ccccc1[C@@H]1OC(c2ccc(OCCCO)cc2)=N[C@]1(Cc1ccccc1)C(=O)N1CCCCC1,1.05
8,CC1(C)CCC2=C(O1)C(=O)c1ccccc1C2=O [alpha-LAPACHONE],0.948
9,CC(C)(C)OC(=O)C[C@@H]1CC=CC[C@@H](CC(=O)N[C@H](CO)Cc2ccccc2)C(=O)N[C@@H](C(C)(C)C)COC1=O,0.872
10,Cc1ccc(S(=O)(=O)N[C@H]2CC[C@@H](CC(=O)N3CCC(Cc4ccccc4)CC3)O[C@@H]2CO)cc1,0.883
11,O=C(C[C@H]1CC[C@H]2[C@@H](COC[C@@H](O)CN2C(=O)c2ccc3c(c2)OCO3)O1)NCCN1CCCC1,1.07
12,COc1ccccc1S(=O)(=O)N[C@H]1C=C[C@@H](CC(=O)N2CCOCC2)O[C@@H]1CO,0.924
13,C=CCC[C@H](Cc1ccc(F)cc1)C(=O)O[C@@H](CNC(=O)[C@@H](CC=C)CC(=O)N(CCO)Cc1ccccc1)c1ccccc1,1.46
14,C[C@@H]1COCCN1,0.939
15,COCCOC(=O)N1C(=O)[C@@]2(c3cc(C#CCNC(N)=O)ccc31)[C@H](c1ccccc1OCCO)N1[C@H](c3ccccc3)[C@H](c3ccccc3)OC(=O)[C@H]1[C@@H]2C(N)=O,1.05
16,COc1ccccc1-c1ccc2c(c1)O[C@@H](CN(C)CC1CCOCC1)[C@H](C)CN([C@@H](C)CO)S2(=O)=O,0.665
17,CC(C)(C)c1ccc(C(O)CCCN2CCC(C(O)(c3ccccc3)c3ccccc3)CC2)cc1 (stereo not drawn),0.77
18,Cc1cc(=O)oc2c(O)c(O)ccc12,0.924
19,CSc1c(-c2ccc(Cl)cc2)[nH]c2ccccc12,0.919
20,CC12CCCC(O)(C1)C1CC(C)(C)C1CC2 (stereo not drawn) [beta-CARYOPHYLLENE ALCOHOL],0.958
21,CN(C)CCN(Cc1cccs1)c1ccccn1.Cl,1.04
22,C[C@@H]1CN([C@@H](C)CO)S(=O)(=O)c2ccc(-c3cncnc3)cc2O[C@H]1CN(C)C(=O)C1CCCCC1,1.01
23,Brc1ccc(-c2ccc(Br)s2)s1,0.924
24,O=C(O)[C@H]1O[C@@H](Oc2cc3oc(-c4ccccc4)cc(=O)c3c(O)c2O)[C@H](O)[C@@H](O)[C@@H]1O,1.06
25,O=C(O)CCNC(=O)c1cccc([N+](=O)[O-])c1,1.16
26,Nc1ccc(S(=O)(=O)Nc2ccccn2)cc1,0.925
27,O=C(O)[C@@H]1C[C@H](C(F)(F)F)CN1,0.956

row,SMILES,relative growth
1,O=C(CCCCC(=O)N/N=C/[C@H](O)[C@@H](O)[C@H](O)CO)NO,0.999
2,CC#C[C@]1(O)CCC2C3CCC4=CC(=O)CCC4=C3[C@@H](c3ccc(N(C)C)cc3)C[C@@]21C (stereo partly drawn),0.925
3,O=C(O)[C@H](O)[C@@](O)(Cc1ccc(O)cc1)C(=O)O,0.988
4,CCCCOC(=O)CCCCCCC(=O)OCCCC,1.01
5,Cn1c2c(c(=O)n(C)c1=O)CN(CC1CC1)CN2,0.969
6,COCC#Cc1ccc2c(c1)O[C@H](CN(C)S(=O)(=O)c1ccc(OC)cc1)[C@H](C)CN([C@H](C)CO)S2(=O)=O,1.05
7,O=c1[nH]c(=O)c2ccccc2o1,0.835
8,NC(=O)c1ccc[n+](CC(=O)c2ccccc2)c1,0.902
9,CC(C)(C)OC(=O)C[C@H]1CC=CC[C@@H](CC(=O)N[C@H](CO)Cc2ccccc2)C(=O)N2CCC[C@@H]2COC1=O,0.856
10,C#C[C@]1(O)CCC2C3CCc4cc(O)ccc4C3CC[C@@]21C (stereo partly drawn),1.04
11,O=C(O)CN(CCN(CC(=O)O)CC(=O)O)CC(=O)O.[Na+].[Na+],0.914
12,COC(=O)C1=C[C@@H](O)[C@@H](O)[C@H](O[C@@H]2O[C@H](COC(=O)/C=C/c3ccccc3)[C@@H](O)[C@H](O)[C@H]2O)C1,1.07
13,CCOC(=O)C(=O)NCc1nnnn1-c1ccccc1,1.04
14,O=C(C[C@@H]1CC[C@@H](NC(=O)c2cnccn2)[C@H](CO)O1)NCc1ccccc1F,0.936
15,CN(C)CC(=O)OC[C@@H](O)[C@@H](O)[C@H](O)[C@@H](O)C(=O)[O-].[Na+],1.17
16,C[C@@H](NCCCc1cccc(C(F)(F)F)c1)c1cccc2ccccc12.Cl,0.159
17,C[C@@H]1CN([C@@H](C)CO)C(=O)c2cccc(NC(=O)Nc3cccc4ccccc34)c2O[C@H]1CN(C)S(=O)(=O)c1cccc(F)c1,0.957
18,CCc1cnc2c(c1OC)c(=O)n(CCN1CCOCC1)c(=O)n2C,0.967
19,CC(C)Cn1c(=O)n(C)c(=O)c2[nH]cnc21,0.918
20,COc1ccc([C@@H]([C@H](Cc2ccccc2)OC(C)=O)N2C[C@H]3[C@H]([C@@H](OC(C)=O)c4ccccc4)ON(C)[C@H]3[C@@H]2Cc2ccccc2)cc1,1.3
21,CNC1(C)C2CCC(C2)C1(C)C.Cl (stereo not drawn),1.09
22,C[C@@]12CC[C@@H]3[C@@](COC(=O)c4ccccc4)(O[C@@H]4O[C@H](CO)[C@@H](O)[C@H](O)[C@H]4O)[C@H](O1)O[C@]3(O)C2,0.952
23,C[C@@H]1CN([C@@H](C)CO)S(=O)(=O)c2ccc(-c3cccc(C#N)c3)cc2O[C@H]1CN(C)C(=O)c1cccnc1,1.1
24,COc1cc([C@@H]2c3cc4c(cc3[C@@H](O[C@@H]3O[C@@H]5CO[C@@H](c6cccs6)O[C@H]5[C@H](O)[C@H]3O)[C@H]3COC(=O)[C@H]23)OCO4)cc(OC)c1O,0.561
25,O=C(Nc1ccc2c(c1)[C@@H]1C[C@H](CC(=O)N3CCc4ccccc4C3)O[C@@H](CO)[C@@H]1O2)C1CCOCC1,1.05
26,O=C(C[C@H]1CC[C@H]2[C@@H](COC[C@H](O)CN2CC2CCOCC2)O1)N1CCOCC1,0.938
